Laboratory results: patent US10172907B2, “Compositions comprising β-arrestin 1 and methods of use thereof for therapeutic modulation of aldosterone levels in heart disease” (NOVA SOUTHEASTERN UNIVERSITY, priority 2010, dated 2019)

Assays:
AT1R [1] = biological target: T1, AT1R (Homo sapiens, UniProt P30556); assay: Inhibition of SII-induced activation of βarr2 by human AT1R in vitro (FIG. 1A); conditions: % normalized signal
AT1R [2] = biological target: T1, AT1R; assay: Biased antagonism of sartans for AT1R-stimulated βarr vs. G-protein-mediated signaling (FIG. 6); conditions: both IC50 in nM; <1 biased for βarr antagonism, >1 biased towards G-protein antagonism

Compound	relative potency for inhibition of SII-induced activation of βarr2 by human AT1R (AT1R [1])	ratio of IC50 for AT1R-βarr antagonism to IC50 for G-protein antagonism (AT1R [2])	relative potency for inhibition of SII-induced activation of βarr2 by human AT1R (AT1R [1]; listed as valsartan)
CCCCc1nc(Cl)c(CO)n1Cc1ccc(-c2ccccc2-c2nn[nH]n2)cc1 [LOS, Losartan]	the least potent βarr inhibitors	2.45	–
CCCc1nc2c(C)cc(-c3nc4ccccc4n3C)cc2n1Cc1ccc(-c2ccccc2C(=O)O)cc1 [TEL, Telmisartan]	–	0.95	–
CCCCC(=O)N(Cc1ccc(-c2ccccc2-c2nnn[nH]2)cc1)[C@H](C(=O)O)C(C)C [VAL, Valsartan]	the most potent inhibitors	0.23	the most potent
